In patent publication US8609723B2, “Long acting curcumin derivative, preparation method and pharmaceutical use thereof” (Beijing Dingguochangsheng Biotech., Co., Ltd., priority 2008, dated 2013):

Test: Detection of curcumin in plasma of mice (HPLC-MS/MS)
Type: in vivo
Settings: subcutaneous injection 100 mg/kg, single administration
Protocol: Administration Pathway: Mice were administered by subcutaneous injection, with a dosage of 100 mg/kg body weight. Blood samples were collected from eye at 5 min, 10 min, 30 min, 45 min, 1 h, 1.5 h, 2 h, 6 h and Day 2, 3, 4, 5, 6, 7 after administration, respectively, with 6 mice/sampling point. The blood samples were placed into blood collection tubes which had been coated with heparin, and then centrifuged. Subsequently, 0.2 ml supernatant was collected, extracted twice with ethyl acetate, frozen and dried out in vacuum, dissolved in methanol to make a final volume of 0.2 ml, and used for HPLC assay.
Approximately 0.5 mg curcumin was added to a certain amount of peanut oil, to resulting in a final concentration of 0.5 mg/ml. Different concentrations of curcumin was added to a blank plasma sample precisely. The standard samples were prepared in accordance with the plasma samples. […]
Selective multi-reaction monitoring, ion reaction for quantitative analysis and the corresponding Declustering Potential (DP), Collision Energy (CE), Entrance Potential (EP) are m/z 367.1˜216.9, DP: −50 V, CE: −15 V, EP: −6 V, respectively.
The content of curcumin in the plasma was measured by HPLC-MS/MS. […] By then, curcumin can still be detected in plasma of mice.

curcumin decanoate [long acting curcumin]
content value of curcumin in the plasma reached peak: 1 days
curcumin can still be detected in plasma (plateau period until): ≥ 7 days
